The list shows a part of the results, in another mix than the full data. Records with an inconclusive call do not appear. Active and inactive are the calls of the source. Calls come from the whole dose curve; as a rule, active = well fitted curve in the direction sought with a large enough effect; inconclusive = small, poorly fitted or top-dose-only effect, or another doubt; inactive = no such curve, though single readings can be large; an effect the other way counts as inactive or inconclusive.

Sequences of proteins named here, by UniProt entry; tags and fusion partners are left off.
UniProt P08684, whole entry: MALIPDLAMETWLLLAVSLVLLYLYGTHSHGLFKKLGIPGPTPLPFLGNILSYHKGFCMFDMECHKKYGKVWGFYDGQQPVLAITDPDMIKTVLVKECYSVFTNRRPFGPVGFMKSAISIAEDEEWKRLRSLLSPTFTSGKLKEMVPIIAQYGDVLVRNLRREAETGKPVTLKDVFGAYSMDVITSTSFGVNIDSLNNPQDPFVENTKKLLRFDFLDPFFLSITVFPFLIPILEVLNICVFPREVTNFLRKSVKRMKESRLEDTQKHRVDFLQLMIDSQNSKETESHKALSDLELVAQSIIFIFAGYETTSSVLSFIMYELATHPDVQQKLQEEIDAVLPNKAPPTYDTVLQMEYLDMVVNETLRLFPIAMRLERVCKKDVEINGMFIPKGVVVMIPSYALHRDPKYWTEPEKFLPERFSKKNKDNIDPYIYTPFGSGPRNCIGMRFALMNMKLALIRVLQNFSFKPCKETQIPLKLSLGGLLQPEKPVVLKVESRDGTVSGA

Assay [1] in a line: Cellular Toxicity (caspase-3) Renal Proximal Tubule (AID 667).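 Note: cells exposed to compound for 16 hours at 37 °C before detection.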 The conditions noted are these: renal proximal tubule cells, primary cells freshly taken from rat, solvent-only wells 0%, staurosporine 100%; at 91.7 µM (top of the series). The essentials: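 AC50 derived by standard Hill fit of concentration-response data, normalized between DMSO basal and 10 uM staurosporine as 100% stimulation. Cells: primary rat kidney proximal tubule, 16 h treatment at 37 °C.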

The target of assay [2] is Cytochrome P450 3A4 (Homo sapiens) (UniProt P08684). Put plainly: qHTS Assay for Inhibitors and Substrates of Cytochrome P450 3A4 (AID 884). Note: % is set by controls: 0 for no effect and ±100 for the full control effect; nearly all actives have a fitted effect of over 50% in size. The conditions noted are these: recombinant CYP3A4, Luciferin-PPXE luminescence; at 57.1 µM (top of the series).
Assay [3] in a line: MultiTox-Fluor Cytotoxicity Assay - LYMP1-001 - Live Cells (AID 947).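 For activity change, negative = cytotoxicity: 0% = DMSO only and full inhibition = tetraoctylammonium bromide control.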 Note: potency is the fitted concentration of half-maximal effect. The conditions noted are these: LYMP1-001 lymphoblastoid cells, live-cell protease fluorescence viability; series mostly up to 92.2 µM.
Assay [4] in a line: MultiTox-Fluor Cytotoxicity Assay - LYMP1-003 - Dead Cells (AID 961). Note: nearly all actives have a fitted effect of over 70% in size. Note: potency is the fitted concentration of half-maximal effect. The conditions noted are these: LYMP1-003 lymphoblastoid cells, dead-cell protease fluorescence; series mostly up to 92.2 µM. The essentials: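 Dead-cell protease release, detected as bis-AAF-R110 fluorescence at 485/520 nm, was measured in LYMP1-003 cells after 16 h compound treatment at 37 C. AC50 values came from Hill-modeled qHTS curves normalized to DMSO (0%) and 15 uM tetraoctylammonium bromide (100%).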

Assay [5] can be described thus: MultiTox-Fluor Cytotoxicity Assay - LYMP1-003 - Live Cells (AID 962).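 Note: cells exposed to compound for 16 hours at 37 °C.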 Note: potency is the fitted concentration of half-maximal effect. The note with it: LYMP1-003 lymphoblastoid cells, MultiTox-Fluor live-cell protease fluorescence; series mostly up to 92.2 µM. The essentials: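 Cells plated at 2500 per well and incubated 5 hr; compounds added and incubated 16 hr at 37 C; MultiTox-Fluor reagent added for 60 min at room temperature; fluorescence of liberated AFC measured at 405/510 nm.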

Assay [6] can be described thus: Cell Viability - LYMP1-003 - Assay at 24 hr (AID 963).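 For viability change, negative = cytotoxic: plate controls were DMSO only for no effect and tetraoctylammonium bromide positive control for full effect.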 Note: potency is the fitted concentration of half-maximal effect. The conditions noted are these: LYMP1-003 lymphoblastoid cell viability; series mostly up to 92.2 µM. The essentials:
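Acute toxicity in LYMP1-003 lymphoblastoid cells: 24 hr compound treatment at 37 C, ATP measured with CellTiter-Glo after 30 min at room temperature. AC50 derived by fitting the Hill equation to qHTS titrations.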

Assay [7] is described as follows: Cell Viability - LYMP2-001 (AID 921).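 Note: cells exposed to compound for 24 h at 37 °C; 0% = DMSO only and full inhibition = tetraoctylammonium bromide control wells; nearly all actives have a fitted effect of over 70% in size.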 The note with it: LYMP2-001 lymphoblastoid cell viability; at 92.2 µM (top of the series). The essentials: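 Steps: seed 2500 lymphoblastoid cells/well; 5 hr, 37 C; add compound; 24 hr, 37 C; CellTiter-Glo reagent, 30 min room temperature; read luminescence. Concentration-response modeled by Hill equation for AC50.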
A short description of assay [8]: MultiTox-Fluor Cytotoxicity Assay - LYMP1-001 - Dead Cells (AID 946). The conditions noted are these: LYMP1-001 lymphoblastoid cells, dead-cell protease fluorescence; at 92.2 µM (top of the series). The essentials: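 Cytotoxicity as increased dead-cell protease fluorescence (bis-AAF-R110, 485/520 nm), read 60 min after MultiTox-Fluor reagent. Human lymphoblastoid line exposed 16 h; Hill-fitted AC50, with DMSO as 0% and 15 uM tetraoctylammonium bromide as 100%.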

A short description of assay [9]: Cell Viability - LYMP1-002 - Assay at 16 hr (AID 948).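 Note: 0% = DMSO alone and full effect = 92 µM tetraoctylammonium bromide.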 The note with it: LYMP1-002 lymphoblastoid cell viability; at 92.2 µM (top of the series). The essentials:
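Seed 2500 LYMP1-002 cells per well in complete medium and hold 5 hr at 37 C. Add compound across a concentration series and incubate 16 hr at 37 C. Add CellTiter-Glo, wait 30 min at room temperature, read luminescence.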

Assay [10] can be described thus: MultiTox-Fluor Cytotoxicity Assay - LYMP1-002 - Live Cells (AID 955).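 Note: cells exposed to compound for 16 hours; % is set by controls: 0 for no effect and ±100 for the full control effect.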 The note with it: LYMP1-002 lymphoblastoid live-cell protease fluorescence viability; at 46.1 µM (top of the series). The essentials: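 Cytotoxicity in the human lymphoblastoid line LYMP1-002 is measured as loss of live-cell protease activity after 16 h treatment in complete culture medium. AC50 is derived from Hill-equation fits of qHTS concentration-response data.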

Assay [11] is described as follows: MultiTox-Fluor Cytotoxicity Assay - LYMP1-002 - Dead Cells (AID 960). Note: nearly all actives have a fitted effect of over 60% in size. The conditions noted are these: LYMP1-002 lymphoblastoid cells, dead-cell protease fluorescence; at 46.1 µM (top of the series). The essentials: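 Acute cytotoxicity in a human lymphoblastoid line is scored as rising dead-cell protease signal after 16 hr exposure at 37 C, measured fluorometrically (485/520).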

Assay [12] in a line: Cell Viability - LYMP1-003 - Assay at 40 hr (AID 964). Note: % is set by controls: 0 for no effect and ±100 for the full control effect; nearly all actives have a fitted effect of over 60% in size. The note with it: LYMP1-003 lymphoblastoid viability; at 92.2 µM (top of the series). The essentials:
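This qHTS cytotoxicity screen treats human lymphoblastoid cells (LYMP1-003) with compounds for 40 hr and quantifies cellular ATP via luciferase luminescence.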

Assay [13] is described as follows: Cell Viability - LYMP2-003 (AID 965).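 Note: cells exposed to compounds for 24 h before reading; 0% = DMSO only and full effect = 92 µM tetraoctylammonium bromide; nearly all actives have a fitted effect of over 50% in size.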 The note with it: LYMP2-003 lymphoblastoid cell viability; at 92.2 µM (top of the series). The essentials: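 Seed 2500 lymphoblastoid cells/well; incubate 5 hr, 37 C; add compounds; incubate 24 hr, 37 C; add CellTiter-Glo, 30 min RT; read luminescence. AC50 from Hill fit.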
A short description of assay [14]: Cell Viability - LYMP2-004 (AID 966).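 Note: plate controls were DMSO only for no effect and tetraoctylammonium bromide control for full effect; nearly all actives have a fitted effect of over 65% in size.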 The note with it: LYMP2-004 lymphoblastoid cell viability, qHTS; at 92.2 µM (top of the series). The essentials:
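Acute toxicity is scored as a concentration-dependent drop in intracellular ATP, quantified by luciferase luminescence, in human lymphoblastoid cells exposed to compound for 24 hr. AC50 derives from Hill-equation modelling.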
On the technique in general: In qHTS, concentration-response curves come from the screen itself.

Assay [15] can be described thus: Cell Viability - LYMP2-005 (AID 967).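 Note: cells exposed to compound for 24 h at 37 °C; plate controls were DMSO only for no effect and 92 µM tetraoctylammonium bromide control for full effect.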 The conditions noted are these: LYMP2-005 lymphoblastoid cell viability; at 92.2 µM (top of the series). The essentials: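 Acute cytotoxicity is scored as a concentration-dependent drop in intracellular ATP in human lymphoblastoid LYMP2-005 cells after 24 h compound treatment. ATP is quantified by luciferase luminescence, and AC50 is derived by Hill-equation modelling.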

Assay [16] in a line: Cell Viability - LYMP2-009 (AID 968).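 Note: cells exposed to compound for 24 h at 37 °C; 0% = DMSO alone and the full-kill end = tetraoctylammonium bromide at 92 µM; nearly all actives have a fitted effect of over 55% in size.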 The conditions noted are these: LYMP2-009 lymphoblastoid cell viability; at 92.2 µM (top of the series).
Assay [17] in a line: Cell Viability - LYMP2-011 (AID 969).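 Note: 0% = DMSO only and full inhibition = 92 µM tetraoctylammonium bromide; nearly all actives have a fitted effect of over 60% in size.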 The note with it: LYMP2-011 lymphoblastoid cells viability; at 92.2 µM (top of the series). The essentials:
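Acute toxicity is scored as a concentration-dependent drop in intracellular ATP of a human lymphoblastoid line after 24 hr treatment. Values are AC50s modeled with the Hill equation.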

Assay [18] is described as follows: Cell Viability - LYMP2-013 (AID 970).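 Note: cells exposed to compound for 24 h at 37 °C; 0% = DMSO only and full inhibition = tetraoctylammonium bromide control; nearly all actives have a fitted effect of over 55% in size.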 The conditions noted are these: LYMP2-013 lymphoblastoid cells viability; at 92.2 µM (top of the series). The essentials:
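Acute toxicity was measured in human lymphoblastoid cells (2500/well) exposed to compound titrations for 24 hr, with ATP luminescence (CellTiter-Glo) as read-out and AC50 fitted by Hill equation.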

A short description of assay [19]: Cell Viability - LYMP2-015 (AID 971).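 Note: 0% = DMSO only and full effect = 92 µM tetraoctylammonium bromide; nearly all actives have a fitted effect of over 55% in size.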 The conditions noted are these: LYMP2-015 lymphoblastoid cell viability; at 92.2 µM (top of the series). The essentials:
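Acute toxicity was scored as a concentration-dependent drop in intracellular ATP in lymphoblastoid cells after 24 hr compound exposure in complete medium. Detection used CellTiter-Glo luciferase luminescence.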

Assay [20] can be described thus: Cell Viability - LYMP2-017 (AID 972).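 Note: cells exposed to compound for 24 hours at 37 °C; % is set by controls: 0 for no effect and ±100 for the full control effect; nearly all actives have a fitted effect of over 55% in size.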 The note with it: LYMP2-017 lymphoblastoid cell viability; at 92.2 µM (top of the series). The essentials: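 Steps: plate 2500 lymphoblastoid cells per well; incubate 5 hr at 37 C; add compound across a concentration series and incubate 24 hr at 37 C; add CellTiter-Glo and read luminescence after 30 min at room temperature; fit Hill curves for AC50.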

On to `CN(CCCl)CCCl`, for which the caspase-3 activation in assay [1] is inactive: 27.2%. Further, the activity change, negative = inhibition in assay [2] is inactive: -10.1%. In addition, the Potency is active: 31.6 µM in [3], active: 31.6 µM in [4], active: 39.8 µM in [5] and active: 39.8 µM in assay [6].
Consider `O=[N+]([O-])C(Cl)(Cl)Cl`, for which the caspase-3 activation in [1] is inactive: -2.46%. In addition, the activity change, negative = inhibition in [2] is inactive: -13%. For the same molecule, the activity change, negative = cytotoxic is inactive: 7.42% in [7], inactive: -11.7% in assay [12] and inactive: -4.6% in assay [18]. Also, the results for the cytotoxicity (dead cells) in [8] and in assay [11] were inactive: -10.9% and inactive: 8.53%, respectively. Besides, the Potency result in [3], in assay [4], in assay [5] and in assay [6] was “inactive” throughout. Moreover, the activity change, negative = cytotoxicity in assay [9] was inactive: -3.47%; in [13], inactive: 9.59%; in assay [14], inactive: 4.78%; in [20], inactive: -5.75%. In addition, the viability change, negative = cytotoxic in assay [10] is inactive: 3.91%; in [17] it was inactive: -4.82%. Moreover, the activity change, negative = viability loss in assay [15] was inactive: -27.3%; in assay [16], inactive: -8.91%. Also, the activity change, negative = lower viability in assay [19] was inactive: 1.27%.

For the origin of these results see PubChem BioAssay (NCATS).
